Laboratory results as given in patent US8921362B2, “6,7-dialkoxy quinazoline derivatives and methods of treating drug resistant and other tumors” (Natco Pharma Limited, priority 2008, dated 2014).

Test system: lung cancer
Test: Curative effect from in vivo studies in nude mice

Q: What does the source list for `C#Cc1cccc(Nc2ncnc3cc(OCCOC)c(OCCOC)cc23)c1` [Erlotinib HCl, N-(3-Ethylnylphenyl)-6,7-bis(2-methoxyethoxy)-4-quinazolinamine]?
A: Cure ratio (IP, 2.5 mg/Kg): 1/5; Cure ratio (IP, 5 mg/Kg): 2/5; Cure ratio (IP, 10 mg/Kg): 2/5; Cure ratio (IP, 20 mg/Kg): 3/5; Cure ratio (oral, 2.5 mg/Kg): 2/5; Cure ratio (oral, 5 mg/Kg): 0/5; Cure ratio (oral, 10 mg/Kg): 1/5; Cure ratio (oral, 20 mg/Kg): 2/5

Where a name gives a salt, the structure may show the parent alone.
